Earlier results as cited in patent US20110245095A1, “FAST ASSIGNMENT OF ADEQUATE CHEMOTHERAPY WITH LATINUM BASED DRUGS FOR CANCER PATIENTS BASED ON THE IDENTIFICATION OF CONSTITUTIONAL BRCAL MUTATIONS” (priority 2008, published 2011).

Tested on: breast cancer
Settings: HER2 positive patients, compared with anthracycline and taxane combinations; cited from earlier work

For “trastuzumab: trastuzumab (Herceptin) for HER2 positive patients”, the pCR rates is given as “much higher”.
